Experimental data published in ChEMBL document CHEMBL1134077, “Synthesis of potent and selective dopamine D(4) antagonists as candidate radioligands” (Bioorg Med Chem Lett, 2001).

Sequences of proteins named here, by UniProt entry; tags and fusion partners are left off.
UniProt P08173, whole entry: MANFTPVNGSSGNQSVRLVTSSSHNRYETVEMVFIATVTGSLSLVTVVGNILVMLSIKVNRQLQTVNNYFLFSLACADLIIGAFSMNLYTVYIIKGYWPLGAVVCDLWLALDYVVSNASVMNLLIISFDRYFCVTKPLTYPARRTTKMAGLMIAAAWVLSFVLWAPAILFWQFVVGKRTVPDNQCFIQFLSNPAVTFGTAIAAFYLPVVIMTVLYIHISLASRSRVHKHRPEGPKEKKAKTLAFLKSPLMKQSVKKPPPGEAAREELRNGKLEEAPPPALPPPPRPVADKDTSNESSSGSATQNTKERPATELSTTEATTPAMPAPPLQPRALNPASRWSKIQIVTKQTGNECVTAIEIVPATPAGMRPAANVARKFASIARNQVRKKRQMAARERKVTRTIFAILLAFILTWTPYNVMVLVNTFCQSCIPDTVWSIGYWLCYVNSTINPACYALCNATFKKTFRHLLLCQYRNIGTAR

Biological target: Muscarinic acetylcholine receptor M4 (Homo sapiens, UniProt P08173)
Test: Binding affinity to cloned Muscarinic acetylcholine receptor M4

FC(F)(F)c1ccc(N2CCN(Cc3c[nH]c4ncccc34)CC2)cc1
pKi: < 5.00

pKi: −log10 of the molar value.
